The test deals with ATG13 (12–200):ATG101 (1–198) complex (human, UniProt O75143 12-200; Q9BSB4 1-198). The test is described as follows: ITC; MBP-ATG9 (801–839) 240 μM injected (13 injections of 2.7 μl) into 0.2 ml of 17 μM ATG101-ATG13 HORMA complex; ITC buffer (25 mM Hepes pH 7.5, 150 mM NaCl, 1 mM MgCl2, 1 mM TCEP); one-site model; repeated four times. The conditions noted are these: both partners purified.

Sequences of proteins named here, by UniProt entry; tags and fusion partners are left off. Residues count along the entry.
UniProt O75143, 12-200, chain 1 of 2: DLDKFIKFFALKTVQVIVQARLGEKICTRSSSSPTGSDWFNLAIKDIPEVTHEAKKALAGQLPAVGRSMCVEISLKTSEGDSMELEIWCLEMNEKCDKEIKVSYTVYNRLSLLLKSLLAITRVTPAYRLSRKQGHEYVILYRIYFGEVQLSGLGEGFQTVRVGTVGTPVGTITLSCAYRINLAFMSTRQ
ATG13 (12–200):ATG101 (1–198) complex, UniProt Q9BSB4, 1-198, chain 2 of 2: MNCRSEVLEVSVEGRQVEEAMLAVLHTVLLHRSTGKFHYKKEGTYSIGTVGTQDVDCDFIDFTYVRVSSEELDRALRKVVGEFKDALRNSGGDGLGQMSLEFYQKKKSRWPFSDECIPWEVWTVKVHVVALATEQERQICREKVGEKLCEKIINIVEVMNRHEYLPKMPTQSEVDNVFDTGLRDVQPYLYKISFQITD

B1: MBP-ATG9A (801–839) (domain or fragment, human, UniProt Q7Z3C6 801-839, looked up)
chain: FSRLPLGGWAEDGQSASRHPEPVPEEGSEDELPPQVHKV
notes: source: HEK GnTi- cells, transfected, purified (amylose resin, Superose 6); not shown: MBP, N-terminal, kept
The Kd is a measure of binding affinity in units of concentration. A low value points to higher affinity. Broadly, the stoichiometry N is a count of units in the complex or per binding partner. For B1, the Kd turned out to be 2.4 ± 0.3 µM and the “stoichiometry N” value is 0.82 ± 0.03.

The record behind these values is publication PMC9931213, “Structural basis for ATG9A recruitment to the ULK1 complex in mitophagy initiation” (Science Advances, 2023).
